# Apparent affinities of Ab-91 variants for a coronavirus HR2 peptide

Values reported by Engelhart et al. 2022, doi:10.1038/s41597-022-01779-4 (FLAb copy).

All variants were tested on one target, the spike HR2 peptide PDVDLGDISGINAS (SARS-CoV-2).

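Phage display of a naive human antibody library on the peptide gave the parent. Library AAYL51 holds single substitutions and randomly drawn double and triple substitutions in the CDRs. The scFvs were displayed on barcoded MATa yeast, the peptide on MATalpha yeast. Mating (16 h, 30 °C) was followed by selection of diploids and sequencing of their barcodes. The ratio of observed to expected reads was calibrated, replicate by replicate, on BCL2-family standards whose Kd was known from biolayer interferometry. Mating was done three times.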

The variants keep the light chain, the linker and the frameworks of Ab-91 (scFv order VL, the linker GGGGSGGGGSGGGGS, VH).
VL: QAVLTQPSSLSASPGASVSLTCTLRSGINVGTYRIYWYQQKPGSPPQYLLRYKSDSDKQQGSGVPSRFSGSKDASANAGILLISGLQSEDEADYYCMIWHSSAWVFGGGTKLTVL
VH: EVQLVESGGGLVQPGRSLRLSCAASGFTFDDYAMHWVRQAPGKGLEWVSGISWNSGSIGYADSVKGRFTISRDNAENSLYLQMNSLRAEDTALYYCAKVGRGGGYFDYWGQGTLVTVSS

Variants are written as CDR1, CDR2 and CDR3 of the heavy chain (limits as in the source). Parent: GFTFDDYAMH, GISWNSGSIGYADSVK, VGRGGGYFDY.
Affinities are written as log10 Kd with Kd in nM; a lower number is a better binder.
Replicates are averaged; those with no signal do not enter the mean.
"nd" means that the variant was in the library but no mating with the target was seen in that replicate; the authors take this as a sign of poor binding, and no number exists.
As a blank, each scFv also met three strains without target: over library AAYL51, 21% of these pairings were detected, typically at 4.54 and seldom below 3.26. The control count says in how many pairings with the empty strains this scFv gave a signal, with their mean in brackets.

CDR-H1	CDR-H2	CDR-H3	log10 Kd (nM) by replicate	mean, log10 nM	signal with controls
MQTFDDYAMH	GISWNSMSIGYADSVK	VGRGGGYFDY	3.70 nd nd	3.70	0 of 9
GFTFDDAAMH	GISWNAGSIGYADSVK	VGRGGGDFDY	nd nd nd	nd	0 of 9
GFTPDDYAMH	GISWNSGSIRYADYVK	VGRGGGYFDY	5.04 4.45 nd	4.75	4 of 9 (4.28)
GFTYDDYAMH	GITWNSGSIFYADSVK	VGRGGGYFDY	nd nd nd	nd	1 of 9 (4.02)
GFTFDDKAMH	QISWNSGSIGYADSVK	IGRGGGYFDY	nd 4.71 nd	4.71	2 of 9 (4.62)
GFTFDDYAMH	GFSWFSGSISYADSVK	VGRGGGYFDY	nd nd nd	nd	0 of 9
GFTFDDYAMH	FISWSSGSIGYADSVK	VTRGGGYFDY	nd nd nd	nd	0 of 9
GFTFDDYAMH	GISWNSGSWGYADSVK	VGRGGKYNDY	4.40 5.03 nd	4.72	1 of 9 (4.01)
GFTFDDYMMH	GISWNSGSIGYADSVK	VHRGGGYFDI	nd 6.21 nd	6.21	1 of 9 (4.13)
GFTFDDYAMH	GISWNSGSIDYADSVK	VGRGGGYFDY	nd nd nd	nd	0 of 9
GHTFDDYAMH	GISWNSGRIGYADSVK	VGLGGGYFDY	6.18 nd nd	6.18	3 of 9 (4.46)
GFTFDDYAMH	GISWNRGSIGYARSVK	VGRGGGYFDS	4.47 nd 3.91	4.19	2 of 9 (3.74)
GFTFDDYAMH	GISWNSGNIGYRDSVK	VGRGGGYFDY	2.71 2.07 1.67	2.15	1 of 9 (4.32)
GRTFDDYAMH	GIRWNSGSIGYADKVK	VGRGGGYFDY	nd nd nd	nd	1 of 9 (4.01)
GHTFDDYAMH	GISWNSGSIGYADSVK	VWRGTGYFDY	nd 4.31 nd	4.31	1 of 9 (4.74)
GFTFDDYAMH	VISLNSGSKGYADSVK	VGRGGGYFDY	nd 5.87 nd	5.87	0 of 9
GFTFDDYAMH	QISWSSGSIGYADSVK	VGRGTGYFDY	nd nd nd	nd	1 of 9 (3.81)
GFEIDDYAMH	GRSWNSGSIGYADSVK	VGRGGGYFDY	4.63 nd nd	4.63	2 of 9 (4.14)
GFTFDDYAMH	GISWNSGSRTYADSVK	VGRGGGYFDF	3.70 nd nd	3.70	1 of 9 (4.07)
GFTFDDYAMK	GISWNSGSIGYAMSVM	VGRGGGYFDY	4.24 5.25 nd	4.75	0 of 9
GFTFDDGAMH	RISWNSGSIGYADSMK	VGRGGGYFDY	nd nd nd	nd	0 of 9
GFTFDDYAMH	GISWNSGHIGYADRVK	VGRGGGYFDT	1.73 1.83 0.67	1.41	0 of 9
GFTFDDYAMH	GISWNSGSIGYADSMC	VGRGGGYFQY	5.73 5.77 nd	5.75	0 of 9
GFTFLDYAMH	GISWNSGSIGYADSVM	VGRNGGYFDY	nd nd nd	nd	0 of 9
GFTFCDYAMH	GISWNSQSIGYADDVK	VGRGGGYFDY	1.58 1.52 0.84	1.31	0 of 9
GFYWDDYAMH	GISWNSGSIGYADSVK	NGRGGGYFDY	nd nd nd	nd	1 of 9 (4.23)
GFTFDDYAMH	GISWNSGSIGYADSWK	VGRGGLFFDY	nd 4.17 nd	4.17	1 of 9 (3.99)
GFTWDDYAMH	GISDNSGSIGYADSVK	TGRGGGYFDY	4.95 4.41 nd	4.68	2 of 9 (4.49)
GFTFDDYAMH	GISWNSGSIGYADSIK	VGRGGGDFDY	nd nd nd	nd	2 of 9 (3.63)
GFTFDDYAMH	GISWNSGSIGYADQVK	VGRGGGIFDY	2.34 2.21 1.61	2.05	2 of 9 (4.43)
GFTFDDYAMH	GISWNSESIGYADSVK	VGRTMGYFDY	nd 6.28 nd	6.28	3 of 9 (4.87)

Repeated from above, the 3 best binders with a signal in all replicates:

CDR-H1	CDR-H2	CDR-H3	log10 Kd (nM) by replicate	mean, log10 nM	signal with controls
GFTFCDYAMH	GISWNSQSIGYADDVK	VGRGGGYFDY	1.58 1.52 0.84	1.31	0 of 9
GFTFDDYAMH	GISWNSGHIGYADRVK	VGRGGGYFDT	1.73 1.83 0.67	1.41	0 of 9
GFTFDDYAMH	GISWNSGSIGYADQVK	VGRGGGIFDY	2.34 2.21 1.61	2.05	2 of 9 (4.43)